Measured values published in ChEMBL document CHEMBL1127882, “Synthesis of coumarins as subtype-selective inhibitors of monoamine oxidase” (Bioorg Med Chem Lett, 1994).

The chains behind the UniProt entries cited, without tags or fusion partners.
UniProt P21396, whole entry: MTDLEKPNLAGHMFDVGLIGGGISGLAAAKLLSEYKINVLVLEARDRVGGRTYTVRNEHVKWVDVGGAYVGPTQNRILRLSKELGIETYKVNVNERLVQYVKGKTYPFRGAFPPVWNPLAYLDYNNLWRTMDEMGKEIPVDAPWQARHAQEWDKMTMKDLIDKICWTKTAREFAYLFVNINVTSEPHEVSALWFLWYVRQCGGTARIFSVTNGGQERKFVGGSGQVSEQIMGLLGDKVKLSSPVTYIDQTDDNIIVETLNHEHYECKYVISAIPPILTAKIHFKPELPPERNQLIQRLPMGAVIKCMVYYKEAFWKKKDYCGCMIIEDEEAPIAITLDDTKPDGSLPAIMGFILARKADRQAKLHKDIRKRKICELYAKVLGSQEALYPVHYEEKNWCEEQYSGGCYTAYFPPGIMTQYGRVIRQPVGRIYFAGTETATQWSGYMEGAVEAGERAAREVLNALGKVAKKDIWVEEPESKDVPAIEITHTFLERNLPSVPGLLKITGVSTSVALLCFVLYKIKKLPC
UniProt P19643, whole entry: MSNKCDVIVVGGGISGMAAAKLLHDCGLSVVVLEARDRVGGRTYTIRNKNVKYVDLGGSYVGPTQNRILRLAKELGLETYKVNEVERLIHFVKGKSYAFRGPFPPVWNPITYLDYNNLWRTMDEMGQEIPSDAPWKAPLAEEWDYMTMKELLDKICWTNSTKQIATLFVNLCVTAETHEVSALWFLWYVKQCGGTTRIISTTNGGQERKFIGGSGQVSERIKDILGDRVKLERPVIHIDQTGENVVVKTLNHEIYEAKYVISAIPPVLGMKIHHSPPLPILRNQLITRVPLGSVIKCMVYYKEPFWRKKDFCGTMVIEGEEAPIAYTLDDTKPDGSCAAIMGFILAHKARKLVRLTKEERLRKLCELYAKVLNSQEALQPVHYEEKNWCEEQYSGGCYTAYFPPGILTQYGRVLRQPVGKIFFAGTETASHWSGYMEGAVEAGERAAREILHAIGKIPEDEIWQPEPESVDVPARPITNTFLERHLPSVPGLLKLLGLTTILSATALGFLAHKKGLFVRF

Tests used:
[1] = target: Amine oxidase [flavin-containing] A (Rattus norvegicus, UniProt P21396); experiment: biochemical; assay type: tissue-based, Brain
[2] = target: Amine oxidase [flavin-containing] B (Rattus norvegicus, UniProt P19643); experiment: biochemical; assay type: tissue-based, Brain

| SMILES | IC50 [1] [nM] | IC50 [2] [nM] |
| --- | --- | --- |
| NCCNC(=O)c1ccc(Cl)cn1 [LAZABEMIDE] | > 10000 | – |
| COc1cc(Br)c2oc(C3CCNCC3)cc2c1 [BROFAROMINE] | – | > 1000 |
| CCS(=O)(=O)Oc1ccc2c(C)c(C)c(=O)oc2c1 [ESUPRONE] | 8 | – |
